Laboratory results taken from PubChem BioAssay AID2112 (National Center for Advancing Translational Sciences (NCATS), 2009).
This is a selection; strong and weak results do not stand in their true shares. Some salts and complexes are drawn in separate pieces, as the source files them; their charges need not balance. Active and inactive are the calls of the source. Calls follow the shape of the dose curve; as a rule, active = well fitted inhibition curve with a large enough effect; inconclusive = small, poorly fitted or top-dose-only effect, or effect the other way, or another doubt; inactive = no such curve, though single readings can be large or run the other way.

Target: Lysosomal alpha-glucosidase (Homo sapiens) (UniProt P10253)
Assay: qHTS Assay for Inhibitors and Activators of Human alpha-Glucosidase From Spleen Homogenate;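 also: 0% = enzyme with vehicle and -100% = no enzyme basal signal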
Conditions: 4-MU-alpha-glucoside fluorescence; at 79.9 µM (top of the series)
Text: NIH Chemical Genomics Center [NCGC] NIH Molecular Libraries Probe Production Centers Network [MLPCN] MLPCN Grant: R03 MH084841-01 Assay Submitter (PI): Wei Zheng NCGC Assay Overview: Alpha-glucosidase is responsible for the hydrolysis of terminal, non-reducing 1,4-linked alpha-D-glucose residues, which releases alpha-D-glucose. It is a lysosomal hydrolase that is required for the degradation of a small percentage (1-3%) of cellular glycogen in humans. Deficiency of this enzyme results in glycogen-storage disease type II (GSDII), also referred to as Pompe disease, an autosomal recessive disorder. Structurally normal glycogen is accumulated in the lysosomes and cytoplasm in affected patients, primarily in muscle tissues. Excessive glycogen storage within lysosomes may interrupt normal functioning of other organelles and leads to cellular injury. In turn, this leads to enlargement and dysfunction of the entire organ involved (eg: cardiomyopathy and muscle weakness). It has been reported that the improper folding and trafficking of alpha-glucosidase resulting from genetic mutations may account for a significant number of Pompe patients. […] We optimized this alpha-glucosidase assay in 1536-well plate format for identification of novel small molecule inhibitors or activators with structures other than the sugar analogs in order to develop new pharmacological chaperones. In particular, this assay is directed towards discovering compounds active in a more natural setting, tissue homogenate, that may have been missed by screens of the purified enzyme under more stringent conditions.
NCGC Assay Protocol Summary: This is a fluorogenic enzyme assay with 4-methylumbelliferyl-alpha-D-glucopyranoside as the substrate and human spleen homogenate containing alpha-glucosidase as the enzyme preparation. Upon hydrolysis of this fluorogenic substrate, the resulting product, 4-methylumbelliferone (which excites at 365 nm and emits at 440 nm) can be detected by a fluorescence plate reader. Data were normalized to the controls for basal activity (without enzyme) and 100% activity (with enzyme). The AC50 values were determined from concentration-response data modeled with the standard Hill equation. Assay buffer: 50 mM citric acid (titrated with potassium phosphate to pH 5.0), 0.01% Tween-20 (pH 5.0 is an optimal condition for this enzyme assay) 1536-well assay protocol for the alpha-glucosidase from human spleen homogenate: (1) Add 2 ul/well spleen homogenate (1 ug) (2) Add 23 nL compounds in DMSO solution. The final titration was 0.5 nM to 58 uM. (3) Add 2 ul of substrate (1 mM final) (4) Incubate at 37 C for 40 min (5) Add 2 ul stop solution (1M NaOH and 1M Glycine mixture, pH 10) (6) Detect the assay plate in a ViewLux plate reader (PerkinElmer) with Ex=365 nm and Em=440nm. Keywords: Alpha-glucosidase, Pompe Disease, pharmacological chaperone, chaperone therapy, high throughput screening, alpha-glucosidase inhibitor, MLSMR, MLSCN, NIH Roadmap, qHTS and NCGC

Question: Which activity change, negative = inhibition does the source give for `COc1ccc(C(=O)NCC2(N3CCOCC3)CCCCC2)cc1OC` here?
Answer: inactive: -1.64%

Question: With `N/C(=N\O)c1c(N)no[n+]1[O-]` as the molecule, how does the activity change, negative = inhibition read?
Answer: inactive: 3.92%

Question: `O=C(O)c1cccc(Nc2c([N+](=O)[O-])cc([N+](=O)[O-])cc2[N+](=O)[O-])c1` was tested. Which activity change, negative = inhibition did it give?
Answer: inactive: -17.9%

Question: With `O=C(OC1CN2CCC1CC2)C1c2ccccc2C=Cc2ccccc21` (stereo not drawn) as the molecule, how does the activity change, negative = inhibition read?
Answer: inactive: -0.534%

Question: Which activity change, negative = inhibition does the source give for `N#Cc1ccc(C(=O)NCC2(N3CCCCC3)CCCCC2)cc1` here?
Answer: inactive: 5.03%

Question: `CCOC(=O)C(CC)C1=NC(C)(C)Cc2ccccc21.O=[N+]([O-])c1cc([N+](=O)[O-])c(O)c([N+](=O)[O-])c1` (stereo not drawn) was tested. Which activity change, negative = inhibition did it give?
Answer: inactive: 5.27%

Question: How did the activity change, negative = inhibition turn out when `ClCCOP(OCCCl)OCCCl` was run?
Answer: inactive: -4.05%

Question: Which activity change, negative = inhibition does the source give for `c1ccc(CN2CCC(Nc3ccccc3)CC2)cc1` here?
Answer: inactive: -7.07%

Question: For `Fc1ccccc1NC1CCN(Cc2ccccc2)CC1`, which activity change, negative = inhibition is on record?
Answer: inactive: -4.26%

Question: How did the activity change, negative = inhibition turn out when `CCN1CCC(Nc2cccc(F)c2)CC1` was run?
Answer: inactive: 3.15%

Question: `CN(C)c1ccc(C(=O)NCC2(N3CCCCC3)CCCCC2)cc1` was tested. Which activity change, negative = inhibition did it give?
Answer: inactive: 0.222%

Question: Which activity change, negative = inhibition does the source give for `CCOc1ncccc1C(=O)NCC1(N2CCOCC2)CCCCC1` here?
Answer: inactive: -5.75%

Question: With `COc1cc(OC)cc(C(=O)NCC2(N3CCOCC3)CCCCC2)c1` as the molecule, how does the activity change, negative = inhibition read?
Answer: inactive: -6.87%

Question: For `CCC(CO)(C(=O)OC1CN2CCC1CC2)c1ccccc1` (stereo not drawn), which activity change, negative = inhibition is on record?
Answer: inactive: 2.42%

Question: Which activity change, negative = inhibition does the source give for `CCCOc1ccc(C)cc1CN(CCCl)CCCl` here?
Answer: inactive: -17.4%

Question: How did the activity change, negative = inhibition turn out when `COc1ccc(C(=O)NCC2(N3CCCCC3)CCCCC2)c(OC)c1OC` was run?
Answer: inactive: 1.26%

Question: `O=C(NCC1(N2CCOCC2)CCCCC1)c1cc2ccccc2o1` was tested. Which activity change, negative = inhibition did it give?
Answer: inactive: -1.6%

Question: Which activity change, negative = inhibition does the source give for `O=C(OC1CN2CCC1CC2)C1c2ccccc2Oc2ccccc21` (stereo not drawn) here?
Answer: inactive: 3.55%

Question: How did the activity change, negative = inhibition turn out when `N#CC1(Nc2ccccc2)CCN(Cc2ccccc2)CC1` was run?
Answer: inactive: 0.281%

Question: Which activity change, negative = inhibition does the source give for `CCOC(=O)N1CCC(Nc2ccc(OC)cc2)CC1` here?
Answer: inactive: -5.83%

Question: For `CCOc1ccc(C)cc1CN(CCCl)CCCl`, which activity change, negative = inhibition is on record?
Answer: inactive: 1.12%

Question: How did the activity change, negative = inhibition turn out when `COc1ccc(NC2CCN(CCc3ccccc3)CC2)c(OC)c1` was run?
Answer: inactive: -5.96%

Question: `Cc1ccc(OCC(C)C)c(CN(CCCl)CCCl)c1` was tested. Which activity change, negative = inhibition did it give?
Answer: inactive: -5%

Question: How did the activity change, negative = inhibition turn out when `N#CC1(Nc2ccccc2)CCN(CCc2ccccc2)CC1` was run?
Answer: inactive: 2.36%

Question: `O=[N+]([O-])c1cc([N+](=O)[O-])c(NCC2CCS(=O)(=O)C2)c([N+](=O)[O-])c1` (stereo not drawn) was tested. Which activity change, negative = inhibition did it give?
Answer: inactive: 1.99%

Question: For `O=C(NCC1(N2CCOCC2)CCCCC1)c1cc(=O)[nH]c2ccccc12`, which activity change, negative = inhibition is on record?
Answer: inactive: -12.2%

Question: Which activity change, negative = inhibition does the source give for `CN1CCN(CCOC(=O)C(O)(c2ccccc2)c2ccccc2)CC1` here?
Answer: inactive: 1.95%

Question: How did the activity change, negative = inhibition turn out when `CC(C)c1ccc(NC2CCN(C(=O)OC(C)(C)C)CC2)cc1` was run?
Answer: inactive: -15.3%

Question: For `CN(C)c1cccc(C(=O)NCC2(N3CCCCC3)CCCCC2)c1`, which activity change, negative = inhibition is on record?
Answer: inactive: -16.4%

Question: For `COc1ccc(CN(CCCl)CCCl)cc1Cl`, which activity change, negative = inhibition is on record?
Answer: inactive: -1.99%

Question: How did the activity change, negative = inhibition turn out when `CCOP(=O)(Cl)Cl` was run?
Answer: inactive: 4.5%

Question: For `O=C(OC1CN2CCC1CC2)c1ccc([N+](=O)[O-])cc1` (stereo not drawn), which activity change, negative = inhibition is on record?
Answer: inactive: -4.26%

Question: Which activity change, negative = inhibition does the source give for `COc1ccc2c(c1O)-c1c(O)c(OC)cc3c1[C@H](C2)[N+](C)(C)CC3.O=[N+]([O-])c1cc([N+](=O)[O-])c([O-])c([N+](=O)[O-])c1[O-]` here?
Answer: inactive: -2.41%
